Measurements published in PubChem BioAssay AID1018 (Sanford-Burnham Center for Chemical Genomics, 2008).
This is a selection; strong and weak results do not stand in their true shares. The source made the active and inactive calls. Rule as the data show it: active = displacement above about 50%; inactive = the rest.

Sequences of proteins named here, by UniProt entry; tags and fusion partners are left off.
UniProt P98170, whole entry, looked up: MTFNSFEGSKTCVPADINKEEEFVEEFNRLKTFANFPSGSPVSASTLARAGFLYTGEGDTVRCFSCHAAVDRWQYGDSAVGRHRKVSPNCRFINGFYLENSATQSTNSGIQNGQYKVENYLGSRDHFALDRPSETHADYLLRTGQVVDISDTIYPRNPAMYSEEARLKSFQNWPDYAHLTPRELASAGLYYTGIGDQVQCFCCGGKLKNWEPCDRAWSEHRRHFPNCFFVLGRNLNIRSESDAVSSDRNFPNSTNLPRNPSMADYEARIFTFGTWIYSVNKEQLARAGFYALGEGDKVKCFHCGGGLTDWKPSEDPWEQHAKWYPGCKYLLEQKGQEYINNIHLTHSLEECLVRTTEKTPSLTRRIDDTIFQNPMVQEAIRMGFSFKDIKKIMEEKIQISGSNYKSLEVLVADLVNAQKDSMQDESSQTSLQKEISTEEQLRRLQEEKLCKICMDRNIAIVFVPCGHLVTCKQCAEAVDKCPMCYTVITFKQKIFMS

Target: E3 ubiquitin-protein ligase XIAP (Homo sapiens) (UniProt P98170)
Test: XIAP antagonists, biochemical, IAP family, fluorescence polarization (AID 1018)
Conditions: XIAP BIR domain, fluorescence polarization peptide displacement; at 20 µM; active compounds read high

SMILES | displacement
CN(C(=O)Cc1ccc(Cl)c(Cl)c1)[C@@H]1CCCC[C@H]1N1CCCC1 | inactive: 2.1%
CN(C)C1(CNC(=O)c2ccc(S(C)(=O)=O)cc2)CCCCC1 | inactive: -5.9%
Cc1nn(-c2ccccc2)c2c1P(=O)(N1CCOCC1)N(C)C(c1ccccc1)=N2 (stereo not given) | inactive: -4.7%
CC1CCC(C(C)C)C(OP(=O)(Nc2ccccn2)c2ccccc2)C1 (stereo not given) | inactive: -1.7%
Cc1ccc(OCC(=O)OC2CN3CCC2CC3)cc1 (stereo not given) | inactive: -6.5%
O=P1(Nc2ccc(Br)cn2)COc2ccccc2OC1 | inactive: -4.1%
O=P1(Nc2ncccn2)COc2ccccc2OC1 | inactive: -11.1%
O=P(Nc1ccccn1)(c1ccc(Br)cc1)c1ccc(Br)cc1 | inactive: -5.6%
C(Cc1nn[nH]n1)Cc1nn[nH]n1 | inactive: -7.8%
O=C(OC1CN2CCC1CC2)c1cccc(Cl)c1 (stereo not given) | inactive: -1%
CC(=O)NC(SC(=S)N(C)C)C(Cl)(Cl)Cl (stereo not given) | inactive: -2.4%
c1nnnn1CCn1cnnn1 | inactive: -2.9%
CC(C)C(=O)NC(Sc1ccccc1)C(Cl)(Cl)Cl (stereo not given) | inactive: -4.7%
O=P(Nc1nccs1)(c1ccccc1)c1ccccc1 | inactive: -7.7%
CC(C)(C)C(=O)NC(Sc1ccccc1)C(Cl)(Cl)Cl (stereo not given) | inactive: -0.6%
O=P1(Nc2nc3ccc(Cl)cc3s2)COc2ccccc2O1 (stereo not given) | inactive: -2%
CCOc1ccc(C2=NCC(CBr)S2)cc1 (stereo not given) | inactive: -0.2%
CC(=O)Nc1ccc(Oc2c([N+](=O)[O-])cc([N+](=O)[O-])cc2[N+](=O)[O-])cc1 | inactive: -4.5%
CCNC(=S)/N=C(\N)N[N+](=O)[O-] | inactive: 1%
O=C(NC1CCS(=O)(=O)C1)NP(=S)(Oc1ccccc1)Oc1ccccc1 (stereo not given) | inactive: -4.7%
c1ccc(-c2nn[nH]n2)c(-c2nn[nH]n2)c1 | inactive: -7.6%
CCOC(=O)NC(Sc1ccccc1)C(Cl)(Cl)Cl (stereo not given) | inactive: -0.6%
O=c1c2cc([N+](=O)[O-])ccc2[nH]c2c([N+](=O)[O-])cc([N+](=O)[O-])cc12 | inactive: -5%
COC(=O)c1cc2c(s1)N=C(c1ccccc1)N(C)P2(=O)N1CCOCC1 (stereo not given) | inactive: -2.2%
Cc1ccc(OP(=O)(Nc2ccccn2)Oc2ccc(C)cc2)cc1 | inactive: -3.4%

SMILES | displacement
CC(=O)NC(SC(=S)N(CC(C)C)CC(C)C)C(Cl)(Cl)Cl (stereo not given) | inactive: -1.8%
CCC(=O)N1C2C3N(C(=O)CC)C1C1N(C(=O)CC)C(C(N1C(=O)CC)N3C(=O)CC)N2C(=O)CC | inactive: -6.2%
Cc1cc(SC(NC(=O)c2ccc(F)cc2)C(Cl)(Cl)Cl)ncn1 (stereo not given) | inactive: -3.8%
CCOP(=O)(Nc1ccccc1)OCC | inactive: -7.2%
CCN(N=Nc1nonc1N)c1nonc1N | inactive: -8.9%
COc1ccccc1OP(=O)(Nc1ccc(C)cn1)Oc1ccccc1OC | inactive: 44.5%
CN1CCCC(OC(=O)C(c2ccccc2)c2ccccc2)C1 (stereo not given) | inactive: -5.8%
Clc1ccc(Cl)c(NC2=NCC(CBr)S2)c1 (stereo not given) | inactive: -3.4%
NC(=O)c1cc([N+](=O)[O-])cc([N+](=O)[O-])c1N | inactive: -4.9%
Cc1ccc(N/C(=N/P(=O)(N2CCOCC2)N2CCOCC2)N2CCOCC2)cc1 | inactive: -1.4%
CC(C)CC(=O)NC(Sc1ccc(Cl)cc1)C(Cl)(Cl)Cl (stereo not given) | inactive: -3.3%
Oc1ccccc1CNc1ccccn1 | inactive: -9%
O=C(NC(Sc1ccncn1)C(Cl)(Cl)Cl)c1ccccc1 (stereo not given) | inactive: -6.1%
Cc1c2non([O-])c-2c(C)[n+](=O)[n+]1[O-] | inactive: -3.6%
O=[N+]([O-])c1cccc2n[nH]nc12 | inactive: -6.7%
CC(=O)N1C2C3N(C(C)=O)C1C1N(C(C)=O)C(C(N1C(C)=O)N3C(C)=O)N2C(C)=O | inactive: -6.3%
Cc1ccc(NP(=O)(Oc2ccccc2)Oc2ccccc2)nc1 | inactive: -7.7%
CCc1nc2c(n1)c1c(non1O)c1c2no[n+]1[O-] | inactive: -3.6%
O=[N+]([O-])c1cc([N+](=O)[O-])c(CCNc2ccccc2)c([N+](=O)[O-])c1 | inactive: 1.5%
COc1ccc(C2=NCC(CBr)S2)cc1 (stereo not given) | inactive: -13.2%
CC(C)=N/N=C(\N)N[N+](=O)[O-] | inactive: -8%
CN(C)C(=O)OCCc1n(C)cc[n+]1C | inactive: -6.6%
CC1CCN(C(=O)Oc2c(Cl)cc(Cl)c3cccnc23)CC1 | inactive: -0.8%
CCN(/C(=N/P(=O)(N1CCOCC1)N1CCOCC1)N1CCOCC1)c1ccc(OC)cc1 | inactive: -5.6%
O=[N+]([O-])c1ncn(CCn2ncnc2[N+](=O)[O-])n1 | inactive: -4.6%
